Data taken from ChEMBL document CHEMBL4354860, “Targeting the Regulatory Site of ER Aminopeptidase 1 Leads to the Discovery of a Natural Product Modulator of Antigen Presentation” (J Med Chem, 2020).

Amino acid sequences for entries named in this document (tags omitted). A change or cut given only in a name is not applied to a line headed by its entry.
UniProt Q9NZ08: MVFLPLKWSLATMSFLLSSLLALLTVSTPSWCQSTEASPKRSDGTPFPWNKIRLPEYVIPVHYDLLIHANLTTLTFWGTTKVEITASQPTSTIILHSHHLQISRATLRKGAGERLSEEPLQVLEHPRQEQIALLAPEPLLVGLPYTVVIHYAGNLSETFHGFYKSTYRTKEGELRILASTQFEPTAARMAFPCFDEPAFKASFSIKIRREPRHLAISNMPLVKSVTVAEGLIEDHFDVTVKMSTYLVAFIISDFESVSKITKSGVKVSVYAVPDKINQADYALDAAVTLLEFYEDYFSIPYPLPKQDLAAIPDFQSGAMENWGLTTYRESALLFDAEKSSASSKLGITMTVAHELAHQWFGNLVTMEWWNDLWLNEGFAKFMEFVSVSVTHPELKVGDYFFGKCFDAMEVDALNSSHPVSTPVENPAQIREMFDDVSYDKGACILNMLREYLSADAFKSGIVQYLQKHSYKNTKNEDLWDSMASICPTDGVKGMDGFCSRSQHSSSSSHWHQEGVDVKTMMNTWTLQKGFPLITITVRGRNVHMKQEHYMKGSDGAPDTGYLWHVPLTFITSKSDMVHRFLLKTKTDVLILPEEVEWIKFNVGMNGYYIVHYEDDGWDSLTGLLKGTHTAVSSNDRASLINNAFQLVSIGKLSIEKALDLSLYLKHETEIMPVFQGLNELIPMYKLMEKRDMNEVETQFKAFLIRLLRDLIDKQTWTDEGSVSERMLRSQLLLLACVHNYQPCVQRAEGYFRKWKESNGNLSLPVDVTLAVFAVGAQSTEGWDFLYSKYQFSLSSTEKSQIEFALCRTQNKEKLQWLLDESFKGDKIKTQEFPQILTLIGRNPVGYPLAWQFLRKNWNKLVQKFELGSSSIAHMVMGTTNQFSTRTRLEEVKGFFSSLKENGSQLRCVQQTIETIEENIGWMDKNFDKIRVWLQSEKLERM

How the values were obtained:
HeLa = assay: Cytotoxicity against human HeLa cells assessed as effect on cell viability up to 167 uM by Zombie-violet staining based assay; format: ADME
[1] = target: Endoplasmic reticulum aminopeptidase 1 (Homo sapiens) (UniProt Q9NZ08); settings: 5 to 15 uM

C[C@@H]1C[C@H](O)[C@@]2(C)C(C(=O)O)=CCC[C@@H]2[C@@]1(C)CCc1ccoc1.N
Activity (HeLa): Non-Toxic | inhibition [1]: Active

Activity calls are given as the source filed them. The rule behind the calls is not given here.
